We go through three molecules from PubChem BioAssay AID1566 (Sanford-Burnham Center for Chemical Genomics, 2009).

This is a selection; strong and weak results do not stand in their true shares. The source made the active and inactive calls. Rule as the data show it: active = inhibition above about 50%; inactive = the rest.

This experiment in a line: NOD2 signaling inhibitors, cell-based, luminescence, uHTS, HEK293 (AID 1566). The settings on record: HEK293 NOD2/NF-kB luciferase reporter, at 4 µM, hits give high values. (In a reporter assay the amount or activity of a reporter protein is the signal.)
Turning to `C[N+]1=C2C=CC=CC=C2SC12C([N+](=O)[O-])=CC([N+](=O)[O-])=C[C-]2[N+](=O)[O-]` (stereo not drawn), the inhibition was active: 95.5%.

For the molecule `O=[N+]([O-])c1ccc(O)c(/C=N/Nc2ccc([N+](=O)[O-])cc2[N+](=O)[O-])c1`, the inhibition was active: 99.1%.

Turning to `O=c1c2cc([N+](=O)[O-])ccc2[nH]c2c([N+](=O)[O-])cc([N+](=O)[O-])cc12`, the inhibition was active: 73.4%.

In general, inhibition refers to the relative decrease from the control value, in per cent.
